Source: ChEMBL document CHEMBL1149096 (J Med Chem, 2004)

By UniProt entry, the sequences of proteins in these tests, tags left out.
UniProt P33535, whole entry: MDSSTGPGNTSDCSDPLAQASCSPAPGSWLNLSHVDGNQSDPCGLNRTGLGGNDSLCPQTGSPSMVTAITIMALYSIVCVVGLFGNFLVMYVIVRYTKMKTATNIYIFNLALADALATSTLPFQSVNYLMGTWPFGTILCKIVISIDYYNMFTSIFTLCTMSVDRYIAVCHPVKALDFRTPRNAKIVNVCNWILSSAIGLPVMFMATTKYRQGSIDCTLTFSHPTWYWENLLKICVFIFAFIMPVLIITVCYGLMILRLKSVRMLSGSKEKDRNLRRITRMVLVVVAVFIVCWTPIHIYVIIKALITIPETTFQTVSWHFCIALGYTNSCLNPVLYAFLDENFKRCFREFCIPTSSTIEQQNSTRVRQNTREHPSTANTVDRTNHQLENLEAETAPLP

Biological target: Mu-type opioid receptor (Rattus norvegicus, UniProt P33535)
Test: Binding affinity at Opioid receptor mu 1 by displacement of [3H]DAMGO in rat brain membrane
Format: cell membranes

## Oc1ccc2c3c1O[C@H]1c4[nH]c5ccccc5c4C[C@@]4(O)[C@@H](C2)N(CC2CC2)CC[C@]314 [NALTRINDOLE]
  Ki: 151 nM
